This note sets out measurements from publication PMC6355318 (Bioorganic & Medicinal Chemistry Letters, 2019).

For this data set the following is noted: passive permeability, 5 hours at room temperature.

`CN(C)Cc1ccn2c(-c3ccnc(N)n3)c(-c3ccc(F)cc3)nc2c1` [Compound 2, reference compound] returned a PAMPA of 11 ×10⁻⁶ cm/s.
